{"sequences": {"note": "Protein sequences, listed by entry. Tags and fused reporters are not part of them. Lines headed by an entry give the natural chain unless they say otherwise; changes in a name come on top.", "UniProt P08482": "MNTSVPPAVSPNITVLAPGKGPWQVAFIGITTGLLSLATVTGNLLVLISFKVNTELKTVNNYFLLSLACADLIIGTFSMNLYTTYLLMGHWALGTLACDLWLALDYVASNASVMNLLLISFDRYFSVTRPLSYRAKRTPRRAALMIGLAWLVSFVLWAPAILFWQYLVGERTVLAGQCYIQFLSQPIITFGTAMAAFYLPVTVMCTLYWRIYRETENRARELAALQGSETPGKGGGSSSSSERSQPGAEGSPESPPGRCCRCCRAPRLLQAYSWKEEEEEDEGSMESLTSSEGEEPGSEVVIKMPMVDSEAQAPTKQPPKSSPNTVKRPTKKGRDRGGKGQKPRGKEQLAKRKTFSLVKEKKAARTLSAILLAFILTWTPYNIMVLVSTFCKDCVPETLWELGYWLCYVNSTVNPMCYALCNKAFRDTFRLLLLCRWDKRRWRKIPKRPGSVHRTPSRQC"}, "source": "PubChem BioAssay AID677", "about": "(Vanderbilt High Throughput Screening Facility, 2007)", "note": "The list shows a part of the results, in another mix than the full data. Active and inactive are the calls of the source.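 The calls were made as follows: active = calcium response below the same-plate mean of wells given acetylcholine alone at its 80%-effect dose, minus 3 SD; inactive = the rest.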"}
{"molecular_target": "Muscarinic acetylcholine receptor M1 (Rattus norvegicus) (UniProt P08482)", "test": "rat M1 muscarinic receptor antagonists, confirmation, CHO cells, Fluo-4 calcium, duplicate (AID 677);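 also: raw fluorescence intensity difference in arbitrary instrument units and not normalized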", "settings": "ACh EC80 antagonism, at 10 µM, hits give low values"}
{"smiles": "Cc1ccc(OCC(=O)OC2CN3CCC2CC3)cc1", "note": "(stereo unspecified)", "calcium response (max-min fluorescence)": "active: 384"}
